Measurements published in paper PMC3260246, “Hydroimidazolone Modification of the Conserved Arg12 in Small Heat Shock Proteins: Studies on the Structure and Chaperone Function Using Mutant Mimics” (PLoS ONE, 2012).

Target: the molecule itself
Assay: multi-angle light scattering; molar mass and hydrodynamic radius of wild-type and R12A proteins, ASTRA 5.3.4; conditions as in refs 32, 58

B1: wild-type human αA-crystallin (natural protein, UniProt P02489 1-173, looked up)
chain: MDVTIQHPWFKRTLGPFYPSRLFDQFFGEGLFEYDLLPFLSSTISPYYRQSLFRTVLDSGISEVRSDRDKFVIFLDVKHFSPEDLTVKVQDDFVEIHGKHNERQDDHGYISREFHRRYRLPSNVDQSALSCSLSADGMLTFCGPKIQTGLDATHAERAIPVSREEKPTSAPSS
notes: αA-crystallin, human; The reverse primer carries no stop codon; Large oligomer (molar mass about 4.8e5 g/mol by light scattering); also called αAWt; Wt αA-crystallin; source: E. coli BL21(DE3), purified (gel filtration, ion-exchange chromatography)
B1: binds.
